RAD52 anneal inh = blocks human RAD52 DNA annealing | 360,000 compounds, 0.46% hits | AID 651710 | inhibition, % at 18.7 µM | P43351 | recombinant RAD52 DNA annealing, FRET fluorescence;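 active means every replicate showing at least 50% inhibition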
E-sel inducer = induces E-selectin expression in human endothelial cells; AID 686992; P16581; activation, % at 7.58 µM; HUVEC E-selectin immunofluorescence imaging; normalized: neutral wells 0, TNF-alpha wells 100; 260,000 compounds, 0.37% hits;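 active means mean E-selectin-positive cell signal at least 10% of the positive control, reached in at least 60% of replicates, without over 20% cell loss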
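Assay system: HUVEC, human umbilical vein endothelial cells / Amount: 3,000 HUVEC/well / Controls: TNF-alpha positive control, DMSO neutral control / Compound dosing: single concentration / Medium: EGM-2 over gelatin coat / Evaluation: percent E-selectin-positive cells / Signal: immunofluorescence imaging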
UUG fidelity = yeast start codon fidelity modulation. S. cerevisiae UUG-firefly luciferase reporter, luminescence/redox ratio. activity score, % at 18.7 µM. 0.13% of 350,000 active;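 active means replicate mean at a twofold rise or more, about +100% in these data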;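 further: firefly luciferase made from a UUG start codon reports start codon fidelity; reporter light over untreated wells divided by growth signal over untreated wells; some hits fall short of that in this replicate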
RAD54 inh = inhibitors of human RAD54 branch migration; Q92698; RAD54 Holliday junction branch migration, FAM/BHQ fluorescence; inhibition, % at 10.4 µM; 360,000 compounds, 0.14% hits; AID 602329;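 active means mean normalized replicate activity at least 40 and at least half of replicates scoring 40 or more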;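 further: 0% = median of neutral control wells and 100% = median of positive control wells; inhibitors cause a drop in the FAM fluorescence signal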
Xi reactivation = reactivates the inactive X chromosome in mouse fibroblasts; activation, % at 7.58 µM; AID 743238; XiGFP mouse fibroblasts, % GFP-positive cells imaging, 3 d; cells co-treated with 5-aza-dC sensitizer; scaled so ellipticine positive control = 100%; 360,000 compounds, 0.055% hits;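 active means mean normalized replicate activation at least 10% and every replicate at or above 10%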;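 further: 0% = median of on-plate neutral control wells and 100% = ellipticine 6 µM median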
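Material: XiGFP fibroblasts, SV40-immortalized. Buffer or medium: DMEM plus 5-aza-dC sensitizer. Compound: single concentration per compound, delivered by pin transfer. Times: 3 days compound exposure. Controls: ellipticine 6 µM.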
DNA binding = binds DNA, flagging false Rad54 inhibitor hits; shares compounds with RAD54 inh; AID 651673; 460 compounds, 8% hits; AC50, µM (doses to about 35 µM), inactives show at the top dose activity change, negative = DNA binding; Acridine orange-DNA displacement, fluorescence polarization, 20 min;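 active means signal drop giving an AC50 within twice the top valid tested concentration of each sample, actives reach about 35 µM in these data; inactive means activity opposite to expected, plus the rest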;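 further: polarization loss reports compound binding to salmon sperm DNA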
DNA binder FP = counter-screen for RAD52 inhibitors: DNA binding compounds; shares compounds with RAD52 anneal inh; Salmon sperm DNA/acridine orange FP displacement; AC50, µM; 1,000 compounds, 8% hits;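 active means fitted half-maximal concentration for signal loss at or below twice the highest dose tested, in every separate run, actives reach about 64 µM in these data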
* = called active by the depositor; i = inactive; · = no result. The list is not random: actives were taken first. Their share in the collection is about 0.73%.

Order of results: RAD52 anneal inh	E-sel inducer	UUG fidelity	RAD54 inh	Xi reactivation	DNA binding	DNA binder FP
#1 CN1CCCC1CCNc1ccc2sc3ccccc3c(=O)c2c1 (stereo unspecified)
  -2	2	-5	56*	9	-16%	·
#2 O=c1c2ccccc2oc2ccc(NCCCn3ccnc3)cc12
  -79	0	-48	-11	0	·	·
#3 CC(C)NC(=O)Nc1cccc2c1O[C@H](CN(C)S(=O)(=O)c1ccc(F)cc1)[C@@H](C)CN([C@@H](C)CO)C2=O
  19	0	13	-3	0	·	·
#4 COc1ccccc1-c1ccc2c(c1)O[C@@H](CN(C)CC1CC1)[C@@H](C)CN([C@@H](C)CO)S2(=O)=O
  ·	0	·	·	-1	·	·
#5 Oc1ccc(Nc2ccnc3cc(Cl)ccc23)cc1
  -4	0	-6	58*	0	-12%	·
#6 OC(CNc1ccnc2cc(Cl)ccc12)CNC1CCCCC1 (stereo unspecified)
  45	·	·	·	0	·	·
#7 CCNC1CCC(Nc2ccnc3cc(Cl)ccc23)CC1 (stereo unspecified)
  13	0	-6	55*	0	-2%	·
#8 CC(C)NC(=O)N(C)C[C@H]1Oc2ncccc2C(=O)N(C)C[C@H]1C
  ·	·	·	·	0	·	·
#9 O=C(C[C@H]1C[C@@H]2c3cc(NC(=O)c4ccc5c(c4)OCO5)ccc3O[C@@H]2[C@@H](CO)O1)NCc1cccc(F)c1
  -13	0	12	-4	0	·	·
#10 CCNC(=O)N1CCN(c2ccc(N3CCN(Cc4ccccc4)[C@H](C)C3)c(C)c2)[C@@H](C)C1
  -3	0	·	·	0	·	·
#11 CCN1CCN(c2nn3c(=O)c4ccccc4nc3c3ccccc23)CC1
  ·	·	-5	57*	·	i	·
#12 CCc1ccc2nc3nc(C)cc(C)c3c(N)c2c1
  83*	·	-9	88*	·	-25%	i
#13 N#C[C@@H]1[C@H](c2ccc(-c3cccc(F)c3)cc2)[C@@H](CO)N1C(=O)c1cccnc1
  -39	0	-10	5	0	·	·
#14 Cc1ccccc1C1=CC(=O)CC(C)(C)C1=O
  -9	3	·	·	0	·	·
#15 Cc1cccc(-c2cc3nc(C)cc(NCCCN(C)C)n3n2)c1
  ·	·	-28	28	·	·	·
#16 CN(C)CCCNc1cc(-c2ccccc2)nc2cc(-c3cccc(F)c3)nn12
  67*	·	-18	90*	0	-25%	i
#17 OC(CN1CCCCC1)Cn1c2ccc(Cl)cc2c2cc(Cl)ccc21 (stereo unspecified)
  59*	0	6	55*	0	7%	i
#18 COc1cc(C)c2sc3ccccc3c(=O)c2c1NCCN(C)C
  94*	0	-2	93*	0	9.3µM*	18µM*
#19 Cc1cccc(S(=O)(=O)NC[C@H]2CC[C@@H]3NC[C@@H]3O2)c1
  11	·	·	·	·	·	·
#20 Cc1cc(N2CCN(C)CC2)nc2ccc(NC(=S)NCCCN3CCc4ccccc4C3)cc12
  100*	2	-16	80*	3	-19%	i
#21 CCCCNC(=O)CCC(=O)Nc1ccc2nc(N3CCN(C)CC3)cc(C)c2c1
  -2	0	-13	6	0	·	·
#22 CCN(CC)CCNC(=S)Nc1ccc2nc(N3CCN(CC)CC3)cc(C)c2c1
  93*	0	-18	79*	0	-1%	i
#23 CCN1CCN(c2cc(C)c3cc(NC(=S)NCCCN4CCc5ccccc5C4)ccc3n2)CC1
  106*	0	-24	98*	0	-8%	i
#24 CCOC(=O)N1CCC(NC(=S)Nc2ccc3nc(N4CCN(CC)CC4)cc(C)c3c2)CC1
  44	10	·	·	1	·	·
#25 CCCN1CCN(CCCNC(=S)Nc2ccc3nc(N4CCN(CC)CC4)cc(C)c3c2)CC1
  99*	4	-8	110*	0	2%	i
#26 CCN(CC)CCNc1ccc(CO)c2sc3ccccc3c(=O)c12
  54*	0	10	100*	0	29µM*	22µM*
#27 CCCN(CCC)CCNC(=O)c1cc2c(-c3ccccc3F)nn(C)c2s1
  20	0	·	·	0	·	·
#28 CCCN(CCC)CCNC(=O)c1cc2c(-c3ccc(Cl)cc3)nn(C)c2s1
  52*	1	-5	61*	0	-3%	i

Quoted at random: 4 records from the list, in no set order.
Order of results: RAD52 anneal inh	E-sel inducer	UUG fidelity	RAD54 inh	Xi reactivation	DNA binding	DNA binder FP
#3 CC(C)NC(=O)Nc1cccc2c1O[C@H](CN(C)S(=O)(=O)c1ccc(F)cc1)[C@@H](C)CN([C@@H](C)CO)C2=O
  19	0	13	-3	0	·	·
#16 CN(C)CCCNc1cc(-c2ccccc2)nc2cc(-c3cccc(F)c3)nn12
  67*	·	-18	90*	0	-25%	i
#28 CCCN(CCC)CCNC(=O)c1cc2c(-c3ccc(Cl)cc3)nn(C)c2s1
  52*	1	-5	61*	0	-3%	i
#19 Cc1cccc(S(=O)(=O)NC[C@H]2CC[C@@H]3NC[C@@H]3O2)c1
  11	·	·	·	·	·	·

Bioassay records: PubChem BioAssay, Broad Institute
